This is an account of results in the RepoRT retention time repository (doi:10.1016/j.foodchem.2021.129757).

This data set is described as follows: Other, Phenomenex Kinetex PFP, 100 × 4.6 mm, 5 µm, 45 °C, 0.6 mL/min, estimated dead time 1.8 min; A: water + 0.1% trifluoroacetic acid, pH 2; B: methanol; gradient (min/%B) 0/40 20/72 21/40. The note with it: stereoisomer not certain.

On to `COc1cc(-c2[o+]c3cc(O)cc(O)c3cc2O)ccc1O` [Peonidin], for which the LC retention time was 13.8 min.
